Antibody variant affinities, Ab-95 light chain, assay 2

Data: MIT Lincoln Laboratory AlphaSeq set, Engelhart et al. 2022, doi:10.1038/s41597-022-01779-4, as distributed in FLAb.

Target: peptide PDVDLGDISGINAS, taken from heptad repeat 2 (HR2) of SARS-CoV-2 spike.

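Phage display of a naive human antibody library on the peptide gave the parent. AAYL52 was designed without a model: most single CDR substitutions and a random sample of double and triple ones. The scFvs were displayed on barcoded MATa yeast, the peptide on MATalpha yeast. Binding brings cells together so that they mate, and sequencing counts the barcode pairs among the diploids. Read counts were normalised to the haploid input and turned into Kd by a linear fit to BCL2-family pairs of known affinity, for each replicate. Mating was done three times.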

Ab-95 is the parent antibody, in scFv form: VH, then three GGGGS repeats, then VL. The heavy chain is unchanged in all variants.
VH: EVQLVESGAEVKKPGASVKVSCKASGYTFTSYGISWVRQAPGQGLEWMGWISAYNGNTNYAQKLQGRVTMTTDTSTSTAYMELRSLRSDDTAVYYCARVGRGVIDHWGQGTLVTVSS
VL: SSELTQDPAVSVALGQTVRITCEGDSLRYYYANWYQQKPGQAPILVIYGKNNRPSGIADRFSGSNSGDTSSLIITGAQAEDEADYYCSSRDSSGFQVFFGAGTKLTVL

The parent's light chain CDRs are EGDSLRYYYAN, GKNNRPS, SSRDSSGFQVF; each variant's own CDRs replace them letter for letter. Affinities are written as log10 Kd with Kd in nM; a lower number is a better binder. Replicates are averaged; those with no signal do not enter the mean. "nd" means that the variant was in the library but no mating with the target was seen in any replicate; the authors take this as a sign of poor binding, and no number exists.

| CDR-L1 | CDR-L2 | CDR-L3 | log10 Kd (nM), mean | detected | empty controls |
|---|---|---|---|---|---|
| EGKSLRYYYAN | GKNNRPS | SSRDSSTFQVA | 3.07 | 1 of 3 | 3 of 9 |
| HGDSRRYYYAN | GKNNRPS | SSRDSSGFQVG | 2.09 | 3 of 3 | 0 of 9 |
| EGDSLRYYYAN | GKNQRPG | SFRDSSGFQVF | 2.44 | 3 of 3 | 5 of 9 |
| MGDSLRYYYAN | GKNNRPS | SSRGSSGQQVF | 2.40 | 3 of 3 | 1 of 9 |
| EGDWLRYYYAN | GKYNRPS | SSRDSSGRQVF | 3.71 | 3 of 3 | 3 of 9 |
| EGDSLRDYYAN | GKNNFPN | SSRDSSGFQVF | 3.92 | 1 of 3 | 2 of 9 |
| EGDSLCYYKAN | GKNNRPS | SSRDSSEFQVF | nd | 0 of 3 | 0 of 9 |
| EGDSLRYYYAN | AKNNRPS | SSRDSSIFQVL | 3.58 | 1 of 3 | 2 of 9 |
| ETDSLRYYYAN | WKNNYPS | SSRDSSGFQVF | 3.94 | 2 of 3 | 4 of 9 |
| EGESLRYYYAT | GKNNRPS | SSRDSSGFQVL | 3.53 | 1 of 3 | 2 of 9 |
| EGDSLRYYYAN | GKYNRPS | SSRDSSGFQVG | 4.16 | 3 of 3 | 4 of 9 |
| EGDSLRYYYAN | GKNNRYS | SSRDSQGFQVF | 3.74 | 2 of 3 | 2 of 9 |
| EDDSLRYYYAN | GKNSRPS | GSRDSSGFQVF | 3.25 | 2 of 3 | 3 of 9 |
| EGDSLRYYYAN | GKNNRPS | SSRPSSGFQPL | 2.56 | 3 of 3 | 0 of 9 |
| EGDSLRYYRAN | GQNNRPS | SERDSSGFQVF | 3.75 | 3 of 3 | 3 of 9 |
| EGDSLQYYGAN | GKNNRPS | SSRDSSGFQLF | 2.34 | 3 of 3 | 2 of 9 |
| EGDSLAYWYAN | GKNNRPS | SSRDMSGFQVF | 3.17 | 3 of 3 | 2 of 9 |
| EGDSLPYDYAN | GKMNRPS | SSRDSSGFQVF | 3.06 | 3 of 3 | 5 of 9 |
| EGDSIRYYYAN | GKNNRPS | GSRDSSGFQEF | 1.99 | 3 of 3 | 1 of 9 |
| EGDPAGYYYAN | GKNNRPS | SSRDSSGFQVF | 3.77 | 2 of 3 | 3 of 9 |
| EGDSLFYYYAN | GKNNRPS | SSRDSSIFQVF | nd | 0 of 3 | 5 of 9 |
| EGDSLRYYYAN | GKNNRPS | SSRDSEGFQVE | 2.73 | 3 of 3 | 5 of 9 |
| ESDSVRYYYAN | GKNNRPS | SSRDSSGFVVF | nd | 0 of 3 | 0 of 9 |
| EGDSLRYYYAV | GKNNRPS | SSRDSSGGQAF | 2.88 | 1 of 3 | 1 of 9 |
| EGDFLRKYYAW | GKNNRPS | SSRDSSGFQVF | 3.91 | 1 of 3 | 3 of 9 |
| EGISLRYHYAN | GKNNRPS | SSRDSSGFQVF | 1.23 | 3 of 3 | 1 of 9 |
| EGWSLRYYYAN | WKNNRPS | SSRDSSGFQVF | 4.03 | 1 of 3 | 3 of 9 |
| EGDSLRYYYAW | IKNNRPY | SSRDSSGFQVF | 5.10 | 2 of 3 | 2 of 9 |
| EGDRERYYYAN | GKNNRPM | SSRDSSGFQVF | 1.43 | 3 of 3 | 5 of 9 |
| EGDSLDYYYAN | GENNRPS | SSRDSSGFQCF | 2.68 | 3 of 3 | 6 of 9 |
| QGDSLRYIYAN | GKNNRPS | SSRDSSGFQVF | 3.19 | 3 of 3 | 5 of 9 |
| EGDSLRYYYAN | GKNNRPT | SSRDPSGFQVF | 2.34 | 3 of 3 | 2 of 9 |
| EGDSLRYYYAN | GKPNQPS | SSRDSSGFQVF | 4.84 | 2 of 3 | 4 of 9 |
| EPDSLRYYYAN | GKNTRPS | SSRDSSGFQVQ | 2.95 | 3 of 3 | 5 of 9 |
| EGDSLRCYYAN | SKNNRPS | SSRDSSGEQVF | 3.88 | 2 of 3 | 6 of 9 |
| EGDSLRYYYAN | GKNNRPS | SSRDSHGYQVF | 2.57 | 3 of 3 | 1 of 9 |
| EGESIRYYYAN | GKNNRPS | SSRDSSGFQVF | 2.72 | 3 of 3 | 4 of 9 |
| EGDSLRMYYAN | GKNNRPY | SSRDSSGFQVM | 3.44 | 2 of 3 | 3 of 9 |
| EGDDLYYYYWN | GKNNRPS | SSRDSSGFQVF | 3.96 | 1 of 3 | 2 of 9 |
| EGDELRYYYAN | GKNNRPS | SSRDGSIFQVF | 4.08 | 1 of 3 | 1 of 9 |
| EGDSLRYYYAN | GKFNRPS | SSRDSSGFQEF | 2.88 | 1 of 3 | 3 of 9 |
| EGDSLRYYYAN | GKNNRPA | VSRDSSGFQVF | 3.24 | 3 of 3 | 2 of 9 |
| EGDSLRYYYAN | GKNNRPS | SSRDESFFQVY | 3.16 | 1 of 3 | 0 of 9 |
| EGDVLRYYYAN | GKNNRFS | SSRDSSTFQVF | 3.46 | 1 of 3 | 3 of 9 |
| EIDCLRYYYAN | GKNNRPS | SSRDSSGFQTF | 3.91 | 1 of 3 | 2 of 9 |
| EGISLRYYYAN | GANNRPS | SSRDSSGDQVF | 2.44 | 3 of 3 | 6 of 9 |
| EGDLLRYYYAN | GKENRPS | SSRDSGGFQVF | 4.09 | 2 of 3 | 2 of 9 |
| EGDSLRYYYAN | GKNNRPM | SSRDSSGVQAF | 2.69 | 3 of 3 | 1 of 9 |
| EGDSLKYYYAN | GKNNRPS | SSREHSGFQVF | 4.09 | 1 of 3 | 1 of 9 |
| EGDSLRYYYAN | GKENRPR | SSRDSSGFAVF | 3.53 | 3 of 3 | 5 of 9 |
| FGDSLRYYYAN | GKPNRPS | SSRDSSGFYVF | 4.13 | 1 of 3 | 2 of 9 |
| EPDSLPWYYAN | GKNNRPS | SSRDSSGFQVF | 4.52 | 2 of 3 | 5 of 9 |
| EGASLRYYYAQ | GKANRPS | SSRDSSGFQVF | 3.64 | 2 of 3 | 2 of 9 |
| KGDSLRYKYAN | GKNNRPS | LSRDSSGFQVF | 2.06 | 3 of 3 | 4 of 9 |
| EGDSLRYYYAN | GPNNRPS | SSRDDSGFQVM | 3.93 | 3 of 3 | 2 of 9 |
| EGDSLRYGYRN | GKNNRPS | SSRDSSGFQVF | 2.70 | 3 of 3 | 2 of 9 |
| EIDSLRYYYAN | GKNNRHS | SSRDSSGFQVF | 2.36 | 3 of 3 | 1 of 9 |
| EGDCLRYYYAK | GKNNRPD | SSRDSSGFQVF | nd | 0 of 3 | 2 of 9 |
| EGDSLRYYYAH | FKNNRPS | ESRDSSGFQVF | 5.83 | 1 of 3 | 3 of 9 |
| EGDSLRYYYAL | GKNNCPS | SNRDSSGFQVF | nd | 0 of 3 | 1 of 9 |
| EGDSLVYMYAN | GKNNRPY | SSRDSSGFQVF | 3.06 | 3 of 3 | 1 of 9 |
| EGDSLRYCYAN | GKQNRPS | SSRDSSGFQVF | 2.97 | 3 of 3 | 0 of 9 |
| EGDSLRYYYAK | GCNNRPS | ASRDSSGFQVF | 3.89 | 1 of 3 | 2 of 9 |
| EGDSLRYYYAN | SFNNRPS | SSRDSSGFQVR | 3.91 | 1 of 3 | 2 of 9 |
| EGDSLRYYYTN | NTNNRPS | SSRDSSGFQVF | 4.66 | 2 of 3 | 3 of 9 |
| EGDSLRYYYAN | GINNRPS | RSRDSDGFQVF | 3.20 | 3 of 3 | 1 of 9 |
| EGDSLRAYVAN | GKNNRPS | SNRDSSGFQVF | nd | 0 of 3 | 4 of 9 |
| EGKLLQYYYAN | GKNNRPS | SSRDSSGFQVF | nd | 0 of 3 | 2 of 9 |
| EGDSLRYYYYN | GKNNCPS | SRRDSSGFQVF | 3.86 | 1 of 3 | 3 of 9 |
| EGDSLRYYYAN | GKNNEPK | PSRDSSGFQVF | nd | 0 of 3 | 2 of 9 |
| EFWSLRYYYAN | GKNNTPS | SSRDSSGFQVF | 3.47 | 3 of 3 | 6 of 9 |

From the list, the first 4 with no signal in any replicate:

CDR-L1	CDR-L2	CDR-L3	log10 Kd (nM), mean	detected	empty controls
EGDSLCYYKAN	GKNNRPS	SSRDSSEFQVF	nd	0 of 3	0 of 9
EGDSLFYYYAN	GKNNRPS	SSRDSSIFQVF	nd	0 of 3	5 of 9
ESDSVRYYYAN	GKNNRPS	SSRDSSGFVVF	nd	0 of 3	0 of 9
EGDCLRYYYAK	GKNNRPD	SSRDSSGFQVF	nd	0 of 3	2 of 9

Nonspecific signal, from three strains lacking the peptide, appeared in 28% of pairings of library AAYL52, centred on 3.91 (5% of these signals below 2.90); values are not corrected for it. The control count says in how many pairings with the empty strains this scFv gave a signal. In this assay the parent's reference entry averaged 2.31; its copy inside this library read 2.25.